Results published in PubChem BioAssay (NCI).
Where “and” joins values, the source holds several entries; their conditions need not be identical. Equal values may be shown once. Only a part is listed here, and it is no random draw. Calls of active or inactive are those of the source. Rule as the data show it: active = growth inhibition above about 70%; inactive = the rest.

Legend:
[1] = NCI Yeast Anticancer Drug Screen. Data for the rad50 strain (AID 155);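 also: 0% = growth of vehicle-only cultures of the same strain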; conditions: S. cerevisiae rad50 strain growth inhibition; at 50.0 µM; stronger effect = higher value
[2] = NCI Yeast Anticancer Drug Screen. Data for the mec2-1 strain (AID 157); conditions: S. cerevisiae mec2-1 strain, at 50.0 µM, stronger effect = higher value
[3] = NCI Yeast Anticancer Drug Screen. Data for the sgs1 mgt1 strain (AID 161);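 also: 0% = growth of cultures given vehicle only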; conditions: S. cerevisiae sgs1 mgt1 strain, at 50.0 µM, stronger effect = higher value
[4] = NCI Yeast Anticancer Drug Screen. Data for the cln2 rad14 strain (AID 165);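 also: 0% = growth equal to vehicle treated cultures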; conditions: S. cerevisiae cln2 rad14 strain, at 50.0 µM, stronger effect = higher value
[5] = NCI Yeast Anticancer Drug Screen. Data for the bub3 strain (AID 167); conditions: S. cerevisiae bub3 mutant strain, at 50.0 µM, stronger effect = higher value
[6] = NCI Yeast Anticancer Drug Screen. Data for the mlh1 rad18 strain (AID 175); conditions: S. cerevisiae mlh1 rad18 strain growth inhibition; at 50.0 µM; stronger effect = higher value

Measured: growth inhibition

CCCNCCN(CCC)C(=N)C(=N)N(CCC)CCNCCC
inactive: [1] 14.2% | [2] 7.8% | [3] 39.7% | [4] -3.85% | [5] 0.7% | [6] 36.1%

CCN(CCCl)Cc1ccccc1
inactive: [1] 36.4% | [2] -3.8% | [3] 32.1% | [4] 5.95% | [5] -3.3% | [6] 39.1%

C/C(CC/C(C)=N\Nc1ccc([N+](=O)[O-])cc1[N+](=O)[O-])=N/Nc1ccc([N+](=O)[O-])cc1[N+](=O)[O-]
inactive: [1] -21.6% | [2] -3.75% | [3] -2.55% | [4] -5.45% | [5] -0.15% | [6] -27.1%

CCN(CC)P1OCC(C)O1 (stereo not given)
inactive: [1] -7.8% | [2] -36% | [3] -16.7% | [4] -35.6% | [5] -6.2% | [6] -7.6%

CC(Br)CN(CC(C)Br)c1cccc(C(=O)O)c1 (stereo not given)
inactive: [1] 11.8% | [2] 4.35% | [3] 9.2% | [4] 5% | [5] 11.3% | [6] 41.7%

CCCCOC(=O)N(CCCl)CCCl
inactive: [1] 15.2% | [2] -5.85% | [3] -5.3% | [4] 8.15% | [5] 5.55% | [6] 5.3%

[O-][n+]1nccnc1N1CC1
inactive: [1] 4.05% | [2] 9.75% | [3] 1.95% | [4] 4.15% | [5] -18.4% | [6] -2.8%

NC1=NCCN1[N+](=O)[O-]
inactive: [1] -4.7% and 12.7% and -1.25% | [2] -4.35% and 6.8% and -2.85% | [3] 2.1% and -15.6% and 1% | [4] -24.6% and 2.25% and 1.7% | [5] 15.2% and 4.3% and -2.05% | [6] 5.3% and 5.05% and 0.95%

O=[N+]([O-])c1cc([N+](=O)[O-])c(OCC(O)CO)c([N+](=O)[O-])c1 (stereo not given)
inactive: [1] 6.65% | [2] 5.3% | [3] 2.2% | [4] -6.5% | [5] -4.65% | [6] 8.9%

CN(N)/C(N)=N/[N+](=O)[O-]
inactive: [1] 15.8% | [2] -4.95% | [3] 24.1% | [4] -10.6% | [5] 6.7% | [6] 23.1%

S=P(Cl)(Oc1ccccc1)c1ccccc1 (stereo not given)
inactive: [1] 16.9% | [2] 23.4% | [3] 6.85% | [4] 50% | [5] 27.3% | [6] 18.6%

C#CCOP(=O)(CCl)N(CCCl)CCCl (stereo not given)
inactive: [1] 4.65% | [2] 13.7% | [3] 12.1% | [4] 60.8% | [5] 13.2% | [6] 28.1%

CCCCCCC(C)OP(O)OC(C)CCCCCC (stereo not given)
inactive: [1] 2% | [2] 19.6% | [3] 0.9% | [4] -21.8% | [5] 23.3% | [6] 18.4%

O=[N+]([O-])c1ccc(N/N=C(/C=N/Nc2ccc([N+](=O)[O-])cc2[N+](=O)[O-])C(O)C(O)C(O)CO)c([N+](=O)[O-])c1 (stereo not given)
inactive: [1] 41.9% | [2] 21.2% | [3] 9.1% | [4] 1.6% | [5] 0.95% | [6] 28.6%

ClCCN1CC2CCCCC2C1 (stereo not given)
inactive: [1] -3.85% | [2] -17.1% | [3] -2.95% | [4] -14.2% | [5] 13.8% | [6] 15.4%

NC1=NC(c2ccccc2[N+](=O)[O-])P(=O)(Nc2ncccn2)S1 (stereo not given)
inactive: [1] -9.55% | [2] -27.6% | [3] -24.9% | [4] -3.1% | [5] -30.3% | [6] -37.1%

Cc1c[nH]c(=O)[nH]c1=O
inactive: [3] -9.85% [middle of 4 runs]

c1ccc(C[S+]2CCCC2)cc1
inactive: [1] 8.85% | [2] -4% | [3] -4.25% | [4] 15.7% | [5] -18.4% | [6] 14.7%

CN(C)C(=O)Oc1cccn(C)c1=O
inactive: [1] -1.35% | [2] -17.6% | [3] -8.95% | [4] -1.4% | [5] 5.2% | [6] -29.9%

O=[N+]([O-])c1cc(Cl)cc([N+](=O)[O-])c1O
inactive: [1] 49.8% | [2] 21.2% | [3] 4.7% | [4] -36.6% | [5] -7.9% | [6] 34.5%

C(Cc1nn[nH]n1)c1nn[nH]n1
inactive: [1] -5.9% | [2] -16% | [3] -24.1% | [4] -77.2% | [5] -31.6% | [6] -20.1%

O=C(O)C(CCS)N(c1ccc([N+](=O)[O-])cc1[N+](=O)[O-])c1ccc([N+](=O)[O-])cc1[N+](=O)[O-] (stereo not given)
inactive: [1] -4.55% | [2] 4.3% | [3] -5.25% | [4] -8.5% | [5] -0.8% | [6] -20.6%

O=P1(N(CCCl)CCCl)OCCCN1Br (stereo not given)
inactive: [1] 4.2% | [2] -6.1% | [3] 8.25% | [4] 15.8% | [5] -2.3% | [6] 5.45%

CCCCCCCCCC(=O)OCC(COP(=O)(Oc1ccccc1)N(CCCl)CCCl)OC(=O)CCCCCCCCC (stereo not given)
inactive: [1] 15.3% | [2] 12.1% | [3] 2.95% | [4] 8.95% | [5] 6.3% | [6] 7%

C[C@H]1OC[C@@H](CN(C)CCCl)O1
inactive: [1] 34.3% | [2] 31.1% | [3] 41.5% | [4] -22% | [5] 30.6% | [6] 40.1%

CCCCCCCC/C=C\CCCCCCCC(=O)OCC(COP(=O)(Oc1ccccc1)N(CCCl)CCCl)OC(=O)CCCCCCC/C=C\CCCCCCCC (stereo not given)
inactive: [1] -2.95% | [2] 0.15% | [3] 12.1% | [4] -11.2% | [5] -9.45% | [6] 25.2%

Fc1ccc(N(CCCl)CCCl)cc1
inactive: [1] 0.95% | [2] -16.6% | [3] -31.8% | [4] -31.6% | [5] -24.8% | [6] -51.9%

CC(=N/Nc1ccc([N+](=O)[O-])cc1[N+](=O)[O-])/C(C)=N/Nc1ccc([N+](=O)[O-])cc1[N+](=O)[O-]
inactive: [1] 0.65% | [2] 22.6% | [3] -17.8% | [4] -6.85% | [5] -0.7% | [6] 5.4%

Cc1cc(/C=N/N(C)C)ccc1N(CCCl)CCCl
inactive: [1] 12.8% | [2] 2.95% | [3] 13.2% | [4] -2.55% | [5] 6.45% | [6] 5.55%

NC(=O)Nc1cc([As](=O)(O)O)cc(I)c1O
inactive: [1] 8.65% | [2] 8.2% | [3] -40.1% | [4] 2.35% | [5] -11.6% | [6] -0.25%

ICCN(CCI)c1ccccc1-c1ccccc1
inactive: [1] 12.2% | [2] -3.75% | [3] 21.6% | [4] 30.4% | [5] 4% | [6] 50.7%

COP(=O)(OC)N(C)[Si](C)(C)C
inactive: [1] -43.6% | [2] -42.1% | [3] -33.2% | [4] -1.35% | [5] -19.6% | [6] -18.6%

O=C(c1cc([N+](=O)[O-])cc([N+](=O)[O-])c1)c1cc([N+](=O)[O-])c(O)c([N+](=O)[O-])c1
inactive: [1] 24.6% | [2] 19.9% | [3] 50.5% | [4] 29.9% | [5] 8.05% | [6] 33%

CN=C(/N=C1\N(C)C(C)(C)P(=O)(O)N1C)NC
inactive: [1] -36% | [2] -40.9% | [3] -35.9% | [4] 5.85% | [5] 8.55% | [6] -25.4%

ClCCN1CN(CCCl)c2ccccc21
inactive: [1] -13.8% | [2] -19.6% | [3] -39.4% | [4] -10.2% | [5] -9.95% | [6] -39.2%

CCCCOP(O)OCCCC
inactive: [1] 22.6% | [2] 6.45% | [3] 5.35% | [4] 13.6% | [5] -8.45% | [6] 21.4%

O=[N+]([O-])c1ccc(NCCSSCCNc2ccc([N+](=O)[O-])cc2[N+](=O)[O-])c([N+](=O)[O-])c1
inactive: [1] -21% | [2] 15.4% | [3] 22.4% | [4] 27.9% | [5] 8.95% | [6] 14.8%

CC1(C)CC[P+](CCC[P+]2(c3ccccc3)CCC(C)(C)c3ccccc32)(c2ccccc2)c2ccccc21 (stereo not given)
inactive: [1] -6.7% | [2] -11.6% | [3] -10.3% | [4] -27.8% | [5] -1.5% | [6] 6.9%

CN1CCCC(OC(=O)C(c2ccccc2)c2ccccc2)C1 (stereo not given)
inactive: [1] 6.45% | [2] 0.25% | [3] -40.5% | [4] 0% | [5] -24.9% | [6] -1.55%

CCNC(=O)O[C@@H]1CC[N+]2([O-])CC=C(COC(=O)C(O)(CC)c3ccc(Cl)cc3)C12 (stereo not given in full)
inactive: [1] -4.85% | [2] -26.4% | [3] -25.5% | [4] 3% | [5] 3.4% | [6] -2.6%
